Experimental data as given in patent US20250127887A1 (priority 2021, published 2025).

Tested on: OT-II cells
Assay: In vitro induction of regulatory T cells by tolerance vaccine formulations in co-culture of CD11c+ APCs and OT-II cells, flow cytometry
Assay type: cell-based

CCCCc1nc2c(N)nc3ccccc3c2n1Cc1ccc(CN)cc1 [Compound 2BXy, 1-(4-(aminomethyl)benzyl)-2-butyl-1H-imidazo[4,5-c]quinolin-4-amine]
proportion of Tregs induced (immunostimulant in combination with rapamycin, vs all other groups that included rapamycin): significantly lower than all other groups that included rapamycin
number of regulatory T cells induced (immunostimulant in vaccine formulations with the inhibitor Torin 1, FIG. 26): signigicantly higher number of regulatory T cells
